# Sampled rows, rich in hits. Any-hit rate of the full collection: about 1.2%.
# Yeast UUG start: alters start codon recognition fidelity in yeast. S. cerevisiae UUG-firefly luciferase reporter, luminescence/redox ratio. 350,000 tested, 0.13% active. activity score, % at 18.7 µM. AID 602363;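 active means replicate mean at a twofold rise or more, about +100% in these data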;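 further: firefly luciferase made from a UUG start codon reports start codon fidelity; reporter light over untreated wells divided by growth signal over untreated wells; some hits fall short of that in this replicate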
# Arrestin-AP2 inh: inhibitors of human beta-arrestin and AP2 interaction; FITC-arrestin peptide / GST-AP2 beads, flow cytometry; AP2 beta2 appendage carries R879A mutation; inhibition, % at 10 µM; actives 0.31% (n = 340,000); AID 504490;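 active = inhibition above a set limit, near 3 SD of compounds lacking own fluorescence, cut at about 54% in these data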
#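 system = GST-tagged AP2 beta2-adaptin appendage (R879A) on 4 µm glutathione beads | reagent = FITC-labelled arrestin peptide probe, 50 nM final | schedule = compound with beads 12 min RT, then probe 1 h RT | signal = HyperCyt-sampled flow cytometry, FL1 channel, ex 488/em 535 nm | read-out = percent response from loss of bead-bound FITC fluorescence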
# Tb MetRS inh: Trypanosoma brucei MetRS inhibition | actives 0.4% (n = 360,000) | inhibition, % at 11.9 µM | purified T. brucei MetRS, ATP depletion, Kinase-Glo luminescence;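 active = inhibition above a per-plate cutoff of the control wells' mean inhibition plus 3 SD, cut at about 5.5% in these data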
#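 Dosing: 11.9 µM compound single dose, 0.9% DMSO; Assay system: purified T. brucei MetRS enzyme; Measured by: Kinase-Glo luciferase luminescence reporting remaining unconsumed ATP; Schedule: 15 min plus 2 h at 25 °C.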
# Rce1 inhib: inhibitors of yeast Ras-converting enzyme. Q03530. yeast membranes, quenched prenylated peptide cleavage fluorescence. calls only. actives 0.27% (n = 290,000). AID 2563;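 active = fall in fluorescence gain of 50% or more versus controls, with final raw signal at or below 3038400; inconclusive = same 50% fall but final raw signal above 3038400; inactive = fall in fluorescence gain under 50%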
# DSG3 Ab inh: human desmoglein-3 autoantibody binding inhibition; P32926; binding (percent of control), % at 10 µM; actives 0.48% (n = 310,000); AID 588358; DSG3-coupled beads, scFv-anti-DSG3-GFP binding, flow cytometry; hits give low values;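 active = binding more than 3 SD below its plate's average and above zero; inconclusive = below that plate limit but binding exactly zero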;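 also: hits lower antibody fragment binding to DSG3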
# Numbers stand for hits; . = inactive; ? = inconclusive; / = not tested or not shown; + = active, no number.
SMILES,Yeast UUG start,Arrestin-AP2 inh,Tb MetRS inh,Rce1 inhib,DSG3 Ab inh
Cc1noc(C)c1NC(=O)N(C)C[C@@H]1Oc2ccc(NC(=O)NC(C)C)cc2C(=O)N([C@@H](C)CO)C[C@@H]1C,.,/,/,/,/
Cc1ccc(C)c(N(CC(=O)N/N=C/c2ccc(-c3ccc([N+](=O)[O-])cc3)o2)S(=O)(=O)c2ccccc2)c1,.,.,.,.,85.3
CN(C)C(=O)C[C@@H]1C[C@H]2c3cc(NS(C)(=O)=O)ccc3O[C@H]2[C@H](CO)O1,.,/,/,/,/
O=C(Nc1cc(F)ccc1F)N[C@H]1C=C[C@@H](CC(=O)N2CCc3ccccc3C2)O[C@@H]1CO,.,/,/,/,/
CN1CCCCN2[C@H](C1)[C@H](c1ccc(Br)cc1)[C@@H]2CO,.,/,/,/,/
CCN(C(=O)COC(=O)c1cc(-c2cccs2)nc2ccccc12)C1CCS(=O)(=O)C1 (stereo not given),/,.,.,+,.
CCN(C(=O)COC(=O)c1cc(-c2ccc(C)o2)nc2ccccc12)C1CCS(=O)(=O)C1 (stereo not given),/,.,.,.,.
Cn1c(SCC(=O)NC2CCCCC2)nnc1-c1cc2cc(Cl)ccc2o1,.,.,.,.,63.6
CC(=O)N(C)C[C@H]1Oc2ncc(C#Cc3ccc(F)cc3)cc2C(=O)N([C@@H](C)CO)C[C@H]1C,.,/,/,/,/
C=C(C)C(=O)Nc1cccc(C2=NOC3(C2)C[C@@H](C(N)=O)N(C(=O)c2ccc(OC)cc2)C3)c1 (stereo not given in full),.,.,.,.,68.6
OCCN(CCO)c1ccc2ccccc2c1,.,.,.,+,.
C[C@H](CO)N1C[C@H](C)[C@@H](CN(C)C(=O)C2CCC2)Oc2ncc(-c3cccnc3)cc2C1=O,.,/,/,/,/
C[C@H]1CN([C@@H](C)CO)C(=O)Cc2cc(NC(=O)Nc3ccc(C(F)(F)F)cc3)ccc2O[C@H]1CN(C)Cc1ccccc1,.,/,/,/,/
O=c1[nH]c(C2CCCN(S(=O)(=O)c3ccccc3Cl)C2)nc2c1nnn2Cc1ccc2c(c1)OCCO2 (stereo not given),.,.,.,.,76.9
CC(=O)N(C)C[C@@H]1Oc2cc(C#CC(C)(C)O)ccc2S(=O)(=O)N([C@H](C)CO)C[C@H]1C,.,/,/,/,/
OC1(c2ccccc2)CC(c2ccccc2)c2ccccc2O1 (stereo not given),.,.,.,/,49.1
COc1ccc(C2CC(O)(c3ccccc3)Oc3cc(OC)c(OC)c(OC)c32)cc1 (stereo not given),.,.,.,.,.
CCC(=O)Nc1ccc2c(c1)C(=O)N(C)[C@H]1CC[C@@H](CC(=O)NCC3CCCCC3)O[C@H]1CO2,.,/,/,/,/
C[C@H](CO)N1C[C@H](C)[C@H](CN(C)Cc2ccc(Oc3ccccc3)cc2)Oc2ccc(NS(=O)(=O)c3cccs3)cc2C1=O,.,/,/,/,/
Cc1cc(-c2ccc(Cl)cc2)n2nc(N)nc2n1,.,.,.,.,75.4
C=CCSc1nnc2c(n1)OC(c1cccnc1)Nc1ccccc1-2 (stereo not given),.,.,.,.,?
c1ccc(CSc2nnc3c(n2)OC(c2ccco2)Nc2ccccc2-3)cc1 (stereo not given),.,.,.,.,61.5
Cc1cccc(NC(=O)COC(=O)C2C3CC4OC(=O)C2C4C3)c1C (stereo not given),/,.,.,.,57.0
COCC(=O)N1[C@@H]2CN(C(=O)c3ccccc3)c3ccccc3[C@@H]2[C@@H]1CO,.,/,/,/,/
COc1ccc(-c2oc3ccccc3c2C(=O)OCc2ccccc2OC)cc1,.,.,.,+,.
SMILES,Yeast UUG start,Arrestin-AP2 inh,Tb MetRS inh,Rce1 inhib,DSG3 Ab inh
COc1ccc(S(=O)(=O)N2C[C@H](O)COC[C@H]3O[C@@H](CC(=O)NCCCN4CCOCC4)CC[C@@H]32)cc1,.,/,/,/,/
C/C(CCc1oc2c(Br)cc(Br)cc2c1-c1ccc(C)o1)=N\O,.,.,14.8,.,.
C/C(CCc1oc2ccccc2c1-c1ccc(C)o1)=N/O,.,.,.,.,.
COc1cccc2c(=O)c(C(=O)NCCc3ccccc3)c[nH]c12,.,.,.,/,.
COc1cccc2c(=O)c(C(=O)O)c[nH]c12,.,.,.,+,.
CC=Cc1ccc2n(c1=O)C[C@H]1[C@H](CO)[C@@H](C(=O)NCc3ccccc3)[C@@H]2N1C (mixture of isomers),.,/,/,/,/
NC(=O)C(CC(=O)O)NC(=O)[C@@H]1CCCNc2c(I)cc([N+](=O)[O-])cc2C(=O)N[C@@H](CO)C(=O)N[C@@H](Cc2ccc(O)cc2)C(=O)N1 (stereo not given in full),.,.,41.0,/,.
CCOc1ccc(C(=O)NC2CCN(C(=S)Nc3ccccc3C)CC2)cc1,/,.,.,.,-5.5
COc1ccc(C(=O)NC2CCN(C(=S)Nc3ccccc3C)CC2)cc1,/,.,.,.,.
O=C(N/N=C/c1cccnc1)c1cc(-c2cccs2)nc2ccccc12,.,.,.,.,.
O=C(N/N=C/c1ccc2ncccc2c1)c1cc(-c2cccs2)nc2ccccc12,.,.,.,.,70.1
O=c1oc(-c2ccccc2)nc2c1cnn2-c1ccccc1,.,.,.,.,.
O=c1oc(-c2cccs2)nc2c1cnn2-c1ccccc1,/,.,.,.,86.0
CCCNC(=O)C[C@@H]1CC[C@@H]2[C@H](COc3ccc(NC(=O)Nc4cccc(C)c4)cc3C(=O)N2C)O1,.,/,/,/,/
COc1ccccc1CNC(=O)Cn1cnnn1,.,.,.,.,.
COC(=O)c1ccc(CNC(=O)Cn2cnnn2)cc1,.,.,.,.,80.6
O=C(Nc1ccccc1N1CCOCC1)C1CCN(S(=O)(=O)c2ccc(F)cc2)CC1,.,.,.,+,.
O=C(Nc1ccc2c(c1)oc1ccc(S(=O)(=O)N3CCCC3)cc12)C1CC1,.,.,.,.,71.0
O=C(Nc1ccc2c(c1)OCO2)C1CCN(c2ccc(S(=O)(=O)N3CCOCC3)cc2)CC1,.,.,.,.,66.2
O=C(Nc1ccc2c(c1)oc1ccccc12)C1CC1,.,.,.,.,.
COc1ccc(NC(=S)N/N=C2/CCCc3c(C)cc(C)cc32)cc1,.,.,.,.,-6.5
CCN(CC)c1ccc(NC(=O)CCCCC(=O)Nc2ccc(N(CC)CC)cc2)cc1,.,.,.,/,87.8
C[C@@H]1CN([C@H](C)CO)C(=O)c2cc(C3=CCCC3)cnc2O[C@@H]1CN(C)C(=O)c1ccncc1,.,/,/,/,/
C[C@H]1CN([C@@H](C)CO)C(=O)c2cccc(NC(=O)Nc3ccc4c(c3)OCO4)c2O[C@H]1CN(C)S(=O)(=O)c1ccc(F)cc1,.,/,/,/,/
COc1ccc(CN(C)C[C@H]2OCCCC[C@@H](C)Oc3ccc(NS(=O)(=O)c4ccc(Cl)cc4)cc3C(=O)N([C@H](C)CO)C[C@H]2C)cc1,.,/,/,/,/
Nc1nc(N2CCN(Cc3ccccc3)CC2)n[nH]1,.,.,.,.,78.9
c1ccc(CNc2nc(N3CCN(Cc4ccccc4)CC3)nc3ccccc23)cc1,.,.,.,+,.

# Bioassay records (PubChem BioAssay)
